Laboratory results taken from US20210122804A1, “PEPTIDE LIGANDS FOR BINDING TO CD38” (BicycleTx Limited, priority 2018, published 2021).

The chains behind the UniProt entries cited, without tags or fusion partners. Residues count along the entry.
UniProt P28907, 43-300 limits assumed: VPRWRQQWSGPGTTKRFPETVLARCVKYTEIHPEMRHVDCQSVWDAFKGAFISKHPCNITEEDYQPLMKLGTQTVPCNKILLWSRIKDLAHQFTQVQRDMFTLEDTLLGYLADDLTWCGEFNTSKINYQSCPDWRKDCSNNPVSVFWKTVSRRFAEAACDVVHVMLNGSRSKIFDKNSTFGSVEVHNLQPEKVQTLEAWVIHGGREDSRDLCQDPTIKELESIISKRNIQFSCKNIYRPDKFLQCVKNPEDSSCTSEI

Key:
[1] = target: T1, human CD38 (human, UniProt P28907 43-300, limits assumed); test: fluorescence polarisation competition; tracer m11
T1 construct: construct used is not described; also called hCD38

[2] = target: T1, human CD38; test: fluorescence polarisation competition; tracer m10
Method: (§1) CD38 Competition Binding Assay Affinity of various bicycle peptide compounds for human CD38 (Ki) was determined using a fluorescence polarisation assay, using the method reported by Lea et al (Expert Opin Drug Discov. 2011 6(1): 17-3) and using the following fluorescently labelled peptides […]-Sar₆-K(F1) for TBMB derivatives and […]-Sar₆-K(F1) for TATA derivatives where Fl is a fluorescein molecule.

[3] = target: T1, human CD38; test: fluorescence polarisation competition; tracer m10; remark: listed apart in the source
Method: as §1

Binder	Ki [1]	Ki [2]	Ki [3]
ACYWNPFMGCYVCA (three Cys thioether-linked to TATA scaffold, bicyclic) [66-50-14-N001]	940 nM	–	–
ACYWNPFIQCSPCA (three Cys thioether-linked to TATA scaffold, bicyclic) [66-50-03-N001]	1700 nM	–	–
ACYWNPFTACYTCA (three Cys thioether-linked to TATA scaffold, bicyclic) [66-50-05-N001]	438 nM	–	–
ACYWNPFAACYDCA (three Cys thioether-linked to TATA scaffold, bicyclic) [66-50-06-N001]	935 nM	–	–
ACMWNPFTGCYACA (three Cys thioether-linked to TATA scaffold, bicyclic) [66-50-08-N001]	158 nM	–	–
ACLYNPFTGCYDCA (three Cys thioether-linked to TATA scaffold, bicyclic) [66-50-09-N001]	749 nM	–	–
ACYWNPFSGCWDCA (three Cys thioether-linked to TATA scaffold, bicyclic) [66-50-10-N001]	335 nM	–	–
ACYWNPFMACFDCA (three Cys thioether-linked to TATA scaffold, bicyclic) [66-50-11-N001]	684 nM	–	–
ACYWNPFTGCYACDST (three Cys thioether-linked to TATA scaffold, bicyclic) [66-50-15-T01-N001]	104 nM	–	–
ACYWNPFTGCYACEAD (three Cys thioether-linked to TATA scaffold, bicyclic) [66-50-15-T02-N001]	179 nM	–	–
ASDNCFWNPFTGCYSCA (three Cys thioether-linked to TATA scaffold, bicyclic) [66-50-17-T01-N001]	358 nM	–	–
ARNECFWNPFTGCYSCA (three Cys thioether-linked to TATA scaffold, bicyclic) [66-50-17-T02-N001]	260 nM	–	–
ACYWNPFTACFSCDDD (three Cys thioether-linked to TATA scaffold, bicyclic) [66-50-18-T01-N001]	77.5 nM	–	–
ACYWNPFTACYVCDVP (three Cys thioether-linked to TATA scaffold, bicyclic; also called 66-50-19-T01-N001) [66-50-19-T001-N001]	575 nM	–	–
ACYWNPFTACWACEPD (three Cys thioether-linked to TATA scaffold, bicyclic; also called 66-50-20-T01-N001) [66-50-20-T001-N001]	85 nM	–	–
ACYWNPFTACFACEEP (three Cys thioether-linked to TATA scaffold, bicyclic; also called 66-50-21-T01-N001) [66-50-21-T001-N001]	337 nM	–	–
ACYWNPFTACWSCDTS (three Cys thioether-linked to TATA scaffold, bicyclic; also called 66-50-22-T01-N001) [66-50-22-T001-N001]	182 nM	–	–
ACVPCADFPIWYC (N-terminal acetyl (Ac); Cys 2, 5 and 13 thioether-linked to TBMB scaffold, bicyclic peptide on trimethylene benzene (TBMB) scaffold, all three linkages thioether; also called Ac-A-(66-03-00)(TBMB) Val1 Tyr9) [BCY00009245]	–	26.8 nM	35 nM
